The values below come from patent US20240317827A1, “LINEAR PEPTIDES INHIBITING CK2-MEDIATED PHOSPHORYLATION AND COMPOSITIONS COMPRISING SAME” (CENTRO DE INGENIERÍA GENÉTICA Y BIOTECNOLOGÍA, priority 2021, published 2024).

In assay [1] the test system is OCI-AML3 (acute myeloid leukemia-3) cell line. Briefly: cell proliferation assay, OCI-AML3 line. Type of assay: cell-based. As to conditions: Table 7. The method, then:
(§1) The evaluation of the antiproliferative activity of synthetic polypeptides A15P35, A15P36 and A15P37 (SEQ ID NO: 46-SEQ ID NO: 48) was performed on the NCI-H125, AsPC-1, PanC-1 (pancreatic carcinoma) and OCI-AML3 (acute myeloid leukemia-3) cell lines. The test was carried out according to the procedure previously described (Perera Y, et al., 2012, J. Pept. Sci, 18 (4):215-23). […] The polypeptides A15P35, A15P36 and A15P37 were able to produce a dose-dependent effect on the proliferation of NCI-H125 cells.

The subject of assay [2] is AsPC-1 cell line (pancreatic adenocarcinoma). Type of assay: cell-based. To be noted: Table 7. How it is done: The cell proliferation assay was performed following the procedure previously described (Perera Y, et al., 2012, J. Pept. Sci, 18 (4):215-23).
as §1

The test system of assay [3] is PanC-1 (pancreatic carcinoma) cell line. Description: cell proliferation assay, PanC-1 line. The format is cell-based. As to conditions: Table 7. How it is done:
as §1

Assay [4] concerns NCI-H125 cell line (non-small cell lung cancer). Description: cell proliferation assay, NCI-H125 line. Type of assay: cell-based. The method, then:
The evaluation of the antiproliferative activity of polypeptides F11P13-F11P21 (SEQ ID NO: 12-SEQ ID NO: 20) was performed on the NCI-H125 cell line. […] The antiproliferative effect of the CIGB-300 peptide has been widely characterized in this line (Cirigliano S. M., et al., 2017, Cancer Cell International, 17, 42), therefore, it was selected as a positive control. Tat peptide was used as a negative control. The polypeptides were evaluated at the concentrations of 25, 50, 100 and 200 μM. The cell proliferation assay was performed by a previously described procedure (Perera Y., et al., 2012, J. Pept. Sci, 18 (4):215-23).
The 24 polypeptides identified as SEQ ID NO: 21-SEQ ID NO: 44 maintained the ability to inhibit the phosphorylation of the E7 protein of HPV-16, mediated by CK2, since phosphorylation inhibition values between 60-85% were obtained. […] Evaluation of the antiproliferative activity of synthetic polypeptides generated by positional scanning of Trp (SEQ ID NO: 21-SEQ ID NO: 44) was performed on the NCI-H125 cell line. The test was performed by the procedure previously described. (Perera Y., et al., 2012, J. Pept. Sci, 18 (4): 215-23). Precursor polypeptides (F11P19, F11P20, F11P21) and peptide CIGB-300 were included as positive controls. The polypeptides were evaluated at the concentrations of 12.5; 25; fifty; 100 and 200 μM.
as §1
(§2) Antiproliferative assays were performed on the NCI-H125, Hep2C (laryngeal carcinoma) cell lines, and on two bladder cancer lines (MGH-U3 and MGH-U4). The test was carried out according to the procedure previously described (Perera Y., et al, 2012, Pept. Sci, 18 (4):215-23).

Assay [5] concerns Hep2C (laryngeal carcinoma) cell line. Description: cell proliferation assay, Hep2C line. Type of assay: cell-based. To be noted: Table 9. The method, then:
as §2

Assay [6] relates to MGH-U3 bladder cancer line. Description: cell proliferation assay, MGH-U3 line. The format is cell-based, human. As to conditions: Table 9. The method, then:
as §2

Assay [7] has as its system MGH-U4 bladder cancer line. Briefly: cell proliferation assay, MGH-U4 line. To be noted: Table 9. The format is cell-based. The method, then:
as §2

The test system of assay [8] is MGH-U3 cells, from bladder cell carcinoma, implanted subcutaneously. Briefly: human bladder tumor model implanted in athymic mice. Type of assay: in vivo, athymic female BalbC mice. As to conditions: 20 μg (1 mg/kg) intraperitoneally, 5 consecutive days, started 5 days after inoculation; FIG. 10. From the text: For these tests, athymic female BalbC mice, between 6 and 8 weeks old, were used. MGH-U3 cells, from bladder cell carcinoma, were used. For tumor implantation in this model, cells were suspended in PBS at a concentration of 1 000 000 cells per milliliter. The cell suspension was inoculated subcutaneously in the abdominal cavity of the animals. Administration of E17P01 polypeptide (identified as SEQ ID NO: 51) or CIGB-300 was started 5 days after the tumor cells were inoculated, and continued for 5 consecutive days, intraperitoneally. The polypeptide and peptide were dissolved in PBS. The administered dose was 20 μg, which corresponds to 1 mg/kg of weight. At different times, the tumor volume (in mm^3) was measured, as a parameter to evaluate the antitumor effect of the polypeptide.

Setting [9] is: Table 7, read-out: IC50 (μM) NCI-H125.
[10] abbreviates: Table 9, read-out: IC50 (μM) NCl-H125.

Structures are written as SMILES. Like-named read-outs stand apart in the source and are kept apart here.

Turning to `N=C(N)NCCC[C@H](NC(=O)CN)C(=O)N[C@@H](CCCCN)C(=O)N[C@@H](CCCCN)C(=O)N[C@@H](CCCNC(=N)N)C(=O)N[C@@H](CCCNC(=N)N)C(=O)N[C@@H](CCC(N)=O)C(=O)N[C@@H](CCCNC(=N)N)C(=O)N[C@@H](CCCNC(=N)N)C(=O)N[C@@H](CCCNC(=N)N)C(=O)N1CCC[C@H]1C(=O)N1CCC[C@H]1C(=O)N[C@@H](CCC(N)=O)C(=O)NCCC(=O)N[C@@H](CCCNC(=N)N)C(=O)N[C@@H](CCCCN)C(=O)N[C@@H](CCCNC(=N)N)C(=O)N[C@@H](CO)C(=O)N[C@@H](CCCNC(=N)N)C(=O)N[C@@H](Cc1ccc(O)cc1)C(=O)N[C@@H](Cc1c[nH]c2ccccc12)C(=O)N1CCC[C@H]1C(N)=O` [A14P46, GRKKRRQRRRPPQ-βA-RKRSRYWP], the IC50 stood at 70 µM in assay [1]; 125 µM in assay [2]; 166 µM in assay [3]; 72 µM in assay [4] (NCI-H125, read-out: IC50 (dose-effect curves)); 72 µM in assay [4] (setting [9]). Further, the “percentage of inhibition of cell proliferation” value in assay [4] (NCI-H125, concentrations 100 and 200 μM) is given as “more than 50%”.

Turning to `N=C(N)NCCC[C@H](NC(=O)CN)C(=O)N[C@@H](CCCCN)C(=O)N[C@@H](CCCCN)C(=O)N[C@@H](CCCNC(=N)N)C(=O)N[C@@H](CCCNC(=N)N)C(=O)N[C@@H](CCC(N)=O)C(=O)N[C@@H](CCCNC(=N)N)C(=O)N[C@@H](CCCNC(=N)N)C(=O)N[C@@H](CCCNC(=N)N)C(=O)N1CCC[C@H]1C(=O)N1CCC[C@H]1C(=O)N[C@@H](CCC(N)=O)C(=O)NCCC(=O)N[C@@H](CCCNC(=N)N)C(=O)N[C@@H](CCCCN)C(=O)N[C@@H](CCCNC(=N)N)C(=O)N[C@@H](Cc1c[nH]c2ccccc12)C(=O)N[C@@H](CCCNC(=N)N)C(=O)N[C@@H](Cc1ccc(O)cc1)C(=O)N[C@@H](Cc1c[nH]c2ccccc12)C(=O)N1CCC[C@H]1C(N)=O` [A15P36, GRKKRRQRRRPPQ-βA-RKRWRYWP], the IC50 in assay [1] was 9 µM; in assay [5], 44 µM; in assay [2], 26 µM; in assay [3] it was 54 µM; in assay [4] (setting [9]), 42 µM; in assay [4] (setting [10]) it was 42 µM.

Turning to `N=C(N)NCCC[C@H](NC(=O)CN)C(=O)N[C@@H](CCCCN)C(=O)N[C@@H](CCCCN)C(=O)N[C@@H](CCCNC(=N)N)C(=O)N[C@@H](CCCNC(=N)N)C(=O)N[C@@H](CCC(N)=O)C(=O)N[C@@H](CCCNC(=N)N)C(=O)N[C@@H](CCCNC(=N)N)C(=O)N[C@@H](CCCNC(=N)N)C(=O)N1CCC[C@H]1C(=O)N1CCC[C@H]1C(=O)N[C@@H](CCC(N)=O)C(=O)NCCC(=O)N[C@@H](CCCNC(=N)N)C(=O)N[C@@H](CCCCN)C(=O)N[C@@H](CCCNC(=N)N)C(=O)N[C@@H](CO)C(=O)N[C@@H](Cc1c[nH]c2ccccc12)C(=O)N[C@@H](Cc1ccc(O)cc1)C(=O)N[C@@H](Cc1c[nH]c2ccccc12)C(=O)N1CCC[C@H]1C(N)=O` [A15P37, GRKKRRQRRRPPQ-βA-RKRSWYWP], the IC50 in assay [1] was 21 µM; in assay [5], 48 µM; in assay [2], 23 µM; in assay [3] it was 65 µM; in assay [4] (setting [9]) it was 46 µM; in assay [4] (setting [10]), 46 µM.

With `CC(=O)NCC(=O)N[C@@H](CCCNC(=N)N)C(=O)N[C@@H](CCCCN)C(=O)N[C@@H](CCCCN)C(=O)N[C@@H](CCCNC(=N)N)C(=O)N[C@@H](CCCNC(=N)N)C(=O)N[C@@H](CCC(N)=O)C(=O)N[C@H](CCCNC(=N)N)C(=O)N[C@@H](CCCNC(=N)N)C(=O)N[C@@H](CCCNC(=N)N)C(=O)N1CCC[C@H]1C(=O)N1CCC[C@H]1C(=O)N[C@@H](CCC(N)=O)C(=O)NCCC(=O)N[C@@H](CCCNC(=N)N)C(=O)N[C@@H](CCCCN)C(=O)N[C@@H](CCCNC(=N)N)C(=O)N[C@@H](CO)C(=O)N[C@@H](Cc1c[nH]c2ccccc12)C(=O)N(C)[C@@H](Cc1ccc(O)cc1)C(=O)N[C@@H](Cc1c[nH]c2ccccc12)C(=O)N1CCC[C@H]1C(N)=O` [D17P80, Ac-GRKKRRQ(D-Arg)RRPPQ-βA-RKRSW(NMe-Tyr)WP], the IC50 in assay [6] stood at 65 µM; in assay [5], 24 µM; in assay [4] (setting [10]) it was 13 µM; in assay [7], 70 µM.

As to `CC(=O)NCC(=O)N[C@@H](CCCNC(=N)N)C(=O)N[C@@H](CCCCN)C(=O)N[C@@H](CCCCN)C(=O)N[C@@H](CCCNC(=N)N)C(=O)N[C@@H](CCCNC(=N)N)C(=O)N[C@@H](CCC(N)=O)C(=O)N[C@H](CCCNC(=N)N)C(=O)N[C@@H](CCCNC(=N)N)C(=O)N[C@@H](CCCNC(=N)N)C(=O)N1CCC[C@H]1C(=O)N1CCC[C@H]1C(=O)N[C@@H](CCC(N)=O)C(=O)NCCC(=O)N[C@@H](CCCNC(=N)N)C(=O)N[C@H](CCCCN)C(=O)N[C@@H](CCCNC(=N)N)C(=O)N[C@@H](Cc1c[nH]c2ccccc12)C(=O)N[C@@H](CCCNC(=N)N)C(=O)N[C@@H](Cc1ccc(O)cc1)C(=O)N[C@@H](Cc1c[nH]c2ccccc12)C(=O)N1CCC[C@H]1C(N)=O` [E17P01, Ac-GRKKRRQ(D-Arg)RRPPQ-βA-R(D-Lys)RWRYWP], the IC50 in assay [6] was 65 µM; in assay [5], 11 µM; in assay [4] (setting [10]), 20 µM; in assay [7], 53 µM. Besides, the “antitumor effect (tumor volume, tumor progression)” value in assay [8] is reported as “ability to inhibit tumor progression, which was greater than that observed for CIGB-300”.

For `CC(=O)NCC(=O)N[C@@H](CCCNC(=N)N)C(=O)N[C@@H](CCCCN)C(=O)N[C@@H](CCCCN)C(=O)N[C@@H](CCCNC(=N)N)C(=O)N[C@@H](CCCNC(=N)N)C(=O)N[C@@H](CCC(N)=O)C(=O)N[C@H](CCCNC(=N)N)C(=O)N[C@@H](CCCNC(=N)N)C(=O)N[C@@H](CCCNC(=N)N)C(=O)N1CCC[C@H]1C(=O)N1CCC[C@H]1C(=O)N[C@@H](CCC(N)=O)C(=O)NCCC(=O)N[C@@H](CCCNC(=N)N)C(=O)N[C@@H](CCCCN)C(=O)N[C@@H](CCCNC(=N)N)C(=O)N[C@@H](Cc1c[nH]c2ccccc12)C(=O)N[C@@H](CCCNC(=N)N)C(=O)N(C)[C@@H](Cc1ccc(O)cc1)C(=O)N[C@@H](Cc1c[nH]c2ccccc12)C(=O)N1CCC[C@H]1C(N)=O` [E17P03, Ac-GRKKRRQ(D-Arg)RRPPQ-βA-RKRWR(NMe-Tyr)WP], the IC50 in assay [6] was found to be 29 µM; in assay [5], 11 µM; in assay [4] (setting [10]), 47 µM; in assay [7], 33 µM.

What is called IC50 is the concentration that gives 50% inhibition.
